Values of other authors as cited in patent US20150086626A1, “STABLE DOSAGE FORMS OF SKELETAL MUSCLE RELAXANTS WITH EXTENDED RELEASE COATING” (MYLAN, INC, priority 2012, published 2015).

Compound: CN(C)CCC=C1c2ccccc2C=Cc2ccccc21.Cl [Cyclobenzaprine hydrochloride, 3-(5H-dibenzo[a,d]cyclohepten-5-ylidene)-N,N-dimethyl-1-propanamine hydrochloride]
- Solubility in hydrocarbon solvents (hydrocarbon solvents): insoluble
- Solubility in isopropanol (isopropanol): sparingly soluble
- Solubility in water and alcohol (water and alcohol): freely soluble
